For data set [1], the system named is HCT116-MTAPdel. Briefly: 2D antiproliferative assay (CTG cell viability), MTAP-deficient cells. The data set is classed as cell-based. Conditions: ratio IC50 wild type / MTAPdel, antiproliferation. Here is the method: HCT116 wild-type and MTAP-deficient cells were cultured in McCoy's 5A medium containing 10% FBS and 1% penicillin-streptomycin, and cultured in a 37°C, 5% CO2 constant temperature incubator. 40 µL of cell suspension was introduced into each well of a 384-well microplate. 40 nL of different concentrations of test compounds were added to each well using an Echo, before culturing in a 37°C, 5% CO2 constant temperature incubator for 7-10 days. 40 µL of CTG solution (Promega, Cat No. G7573) was added to each well and incubated in a 37°C, 5% CO2 constant temperature incubator for 30 minutes in the dark.

Data set [2] in a line: Membrane permeability: Caco-2 assay. The data set is classed as in vitro ADME. As to conditions: human; Caco-2, Efflux Ratio = Papp(B-A)/Papp(A-B). Here is the method:
The membrane permeability of the molecules of the invention was evaluated. […] Efflux Ratio = Papp(B−A) /Papp(A−B) [formula]

Data set [3] concerns SDMA/HCT116-MTAPdel. Nature of the data set: In-cell arginine symmetric dimethylation inhibition (In-cell western, ICW), MTAP-deficient cells. It is filed as cell-based. As to conditions: ratio SDMA IC50 wt / MTAPdel. On the procedure:
60 nL of different concentrations of compounds were added to each well using an Echo, and incubated at 37°C, 5% CO2 for 96 hours.
Next, 50 µL of 4% paraformaldehyde solution was added to each well and incubated at room temperature for 20 minutes to fix the cells. The solution in the wells was removed, and each well was rinsed four times with PBS solution containing 0.1% Tween 20 (PBST). To each well was then added 30 µL of ice-cold methanol. After standing at -20°C for 10 minutes, the methanol was removed and the wells washed four times with PBST. 30 µL of Odyssey blocking solution containing 0.5% Tween 20 was added to each well and shaken for 2 hours at room temperature. The blocking solution was removed and 30 µL of primary antibody (Symmetric Di-Methyl Arginine Motif [sdma-RG] MultiMab™ Rabbit mAb mix) diluted at 1:500 in Odyssey blocking solution containing 0.5% Tween 20 was added to each well. The plates were incubated overnight at 4°C, before removing the primary antibody and rinsing each well four times with PBST, 5 minutes per rinse. […]
The sdme-RG and DRAQ5 signals were scanned at 800 nm and 700 nm respectively on a Li-Cor Odyssey instrument and the signal values recorded. The sdme-RG/DRAQ5 ratio was used to calculate the percentage inhibition of arginine symmetric dimethylation (SDMA), and the IC50 value calculated using GraphPad Prism software.

We go through 3 molecules from EP4653435A1, “PRMT5-MTA INHIBITOR” (Suzhou Puhe Biopharma Co., Ltd., priority 2023, dated 2024).

Molecules are shown by their SMILES.

`C[C@@H]1CC[C@@H](c2ccc3scnc3c2)N(C(=O)C(=O)Nc2cnc(N)c3c2cnn3C)C1` (racemic) [Compound P3]: the “HCT116WT IMTAPdel selectivity” value in data set [1] amounted to 64. The efflux ratio in data set [2] worked out at 13.
Take `C[C@@H]1CC[C@@H](c2ccc3scnc3c2)N(C(=O)C(=O)Nc2cnc(N)c3c2cnn3C)C1` [Compound P3a]: in data set [1], the “HCT116WT IMTAPdel selectivity” value is on record as 15.
Regarding `C[C@H]1CC[C@H](c2ccc3scnc3c2)N(C(=O)C(=O)Nc2cnc(N)c3c2cnn3C)C1` [Compound P3b], the “HCT116WT IMTAPdel selectivity” value in data set [1] amounted to 138. The “Selectivity wt/MTAPdel” value in data set [3] was 963.
